Target: cRAD-CK2β_((186–200)) display protein (Pyrococcus furiosus | human) (UniProt O74036)
Test: SPR; Biacore T100, CM5, peptides or cRAD display proteins immobilised through their cysteine (240-400 RU), kinase as analyte 2.5 nM-2.5 μM, 25°C, 10 mM HEPES pH 7.4, 500 mM NaCl, 0.05% P20; 1:1 steady-state affinity model; CK2α data analysed at 200 s post-injection

CK2α kinase (from UniProt P68400 2-329) (enzyme)
Kd: 237 nM

From paper PMC5897841, “Development of a multipurpose scaffold for the display of peptide loops” (Protein Engineering, Design and Selection, 2017)
